By UniProt entry, the sequences of proteins in these tests, tags left out. Residues count along the entry.
UniProt P23458, 837-1142: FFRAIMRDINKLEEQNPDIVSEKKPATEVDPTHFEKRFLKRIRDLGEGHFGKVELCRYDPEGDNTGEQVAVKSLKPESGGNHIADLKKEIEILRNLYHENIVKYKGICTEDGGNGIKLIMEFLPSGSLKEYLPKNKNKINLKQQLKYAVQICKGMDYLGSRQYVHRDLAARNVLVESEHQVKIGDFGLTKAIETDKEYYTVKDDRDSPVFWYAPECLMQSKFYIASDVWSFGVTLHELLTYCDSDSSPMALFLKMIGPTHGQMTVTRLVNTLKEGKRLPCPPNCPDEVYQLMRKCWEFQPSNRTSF

According to US12226418B2, “Dosing regimen for the treatment of PI3K related disorders” (Incyte Corporation, priority 2018, dated 2025):

Target: JAK1 (Homo sapiens (Human), UniProt P23458)
Assay: JAK1 IC50, Assay A of U.S. Ser. No. 14/680,659 at 1 mM ATP
Format: biochemical

CN(C)Cc1cc(F)cc(OC2CCN(CC(CC#N)n3cc(-c4ncnc5[nH]ccc45)cn3)CC2)c1 (stereo not shown) [Example 14, 4-(4-{3-[(dimethylamino)methyl]-5-fluorophenoxy}piperidin-1-yl)-3-[4-(7H-pyrrolo[2,3-d]pyrimidin-4-yl)-1H-pyrazol-1-yl]butanenitrile]
IC50: < 10 nM
